PubChem BioAssay AID2029 (NMMLSC, 2009)
The list shows a part of the results, in another mix than the full data. Calls of active or inactive are those of the source.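 Rule for the calls: active = GFP response relative to DMSO above a set limit, near the screen mean plus 3 SD (cut at about 150% in these data); inconclusive = Fewer than 70 cells measured for a yeast strain; inactive = the rest.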

Test: TOR pathway RTG branch CIT2 reporter changes – S. cerevisiae, GFP fusion, multiplex flow cytometry, MLPCN library, primary screen (AID 2029);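 note: ratio of well median GFP fluorescence to mean of DMSO wells on the plate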
Conditions: S. cerevisiae CIT2-GFP strain, 3 h, at 10 µM, stronger effect = higher value, 100 means same as DMSO wells
For `CCC(=O)N(c1ccccc1)C1(COC)CCN(CCc2cccs2)CC1`, the GFP response vs DMSO was inactive: 96.8%. In the case of `CCC(=O)N(c1ccccc1)C1(COC)CCN(CCn2nnn(CC)c2=O)CC1`, the GFP response vs DMSO is reported as inactive: 95.7%.
